ChEMBL document CHEMBL3992491, “Discovery, structure-activity relationship studies, and anti-nociceptive effects of N-(1,2,3,4-tetrahydro-1-isoquinolinylmethyl)benzamides as novel opioid receptor agonists” (Eur J Med Chem, 2017)

Sequences of proteins named here, by UniProt entry; tags and fusion partners are left off.
UniProt P35372, whole entry: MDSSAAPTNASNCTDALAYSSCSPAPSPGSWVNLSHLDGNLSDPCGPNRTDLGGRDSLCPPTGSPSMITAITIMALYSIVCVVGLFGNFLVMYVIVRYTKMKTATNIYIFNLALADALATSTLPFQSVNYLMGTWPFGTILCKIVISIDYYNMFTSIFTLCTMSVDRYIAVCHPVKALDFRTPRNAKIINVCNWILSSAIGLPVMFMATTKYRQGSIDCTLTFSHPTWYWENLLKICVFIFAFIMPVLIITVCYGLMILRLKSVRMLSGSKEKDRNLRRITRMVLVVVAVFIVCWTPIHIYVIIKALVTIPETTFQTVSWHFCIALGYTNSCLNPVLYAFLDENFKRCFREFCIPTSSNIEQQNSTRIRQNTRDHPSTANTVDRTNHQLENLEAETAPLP

Molecular target: Mu-type opioid receptor (Homo sapiens, UniProt P35372)
Experiment: Agonist activity at human MOR expressed in HEK293 cells assessed as inhibition of forskolin-induced adenylyl cyclase-mediated cAMP accumulation after 30 mins by HTRF assay
Assay type: functional, cell-based

| Structure (SMILES) | Imax [%] |
| --- | --- |
| O=C(NCC1NCCc2ccccc21)c1ccc(Cl)cc1 (stereo unspecified) | 80.4 |
| O=C(NCC1NCCc2ccccc21)c1ccc(OC(F)(F)F)cc1 (stereo unspecified) | 77.1 |
| Cc1ccc(C(=O)NCC2NCCc3ccccc32)cc1C (stereo unspecified) | 72.8 |
| O=C(NCC1NCCc2ccccc21)c1ccc(F)cc1 (stereo unspecified) | 80.1 |
| O=C(NCC1NCCc2ccccc21)c1ccc(Cl)c(Cl)c1 (stereo unspecified) | 67.9 |
| COc1ccc(C(=O)NCC2NCCc3ccccc32)cc1 (stereo unspecified) | 62.3 |
